Assay [1] has as its system T cells. In words: T cell culture with cytokines after αCD3/αCD28 bead activation (expansion, size, viability). The assay is classed as cell-based. Particulars: T cells activated with αCD3αCD28 beads at day 0 in presence of cytokine. The method, then:
Previously frozen T cells were thawed and contacted with αCD3/αCD28 dynal beads (cell to bead ratio of 1 to 3) in the presence of indicated cytokines at day 0. From day 3, twice more T cell growth media (RPMI1640, 10% FBS, 2 mM L-glutamin, 100 μM non-essential amino acids, 1 mM sodium pyruvate, 10 mM Hepes, 55 μM β-mercaptoethanol, 10% FBS, and 100 U/ml of penicillin-streptomycin) was added to the plate with indicated cytokines (without cytokine, rhIL2 (501 U/ml, Novartis), IL6 (10 ng/ml, R&D systems), IL7 (10 ng/ml, Peprotech), IL15 (10 ng/ml, Peprotech), and IL21 (10 ng/ml, Peprotech)) at day 3, 5, 6, 9, 12, 15, and 18. Cells treated without cytokine, IL6, or IL21 were cultured until day 18 and cells treated with IL2, IL7, or IL15 were cultured until day 25.

The subject of assay [2] is T cells. In words: T cell differentiation status by flow cytometry (CCR7/CD45RO), cytokine process. Conditions: purified T cells cultured with cytokine 24 hours, no CD3/CD28 stimulation. The assay is classed as cell-based. The method, then: The cells were immunophenotyped for T cell differentiation status and transduction of the CAR was assessed using flow cytometry. The cells were washed, viability dye was added followed by the antibody cocktail (Table 20), and the plates were incubated for 20 minutes at room temperature. After the incubation, the cells were washed twice and fixed prior to being analyzed on the BD fortessa.
A general note: Flow cytometry measures light scatter and fluorescence of single cells or particles in a stream.

IL-2: cytokine, rhIL2: the T cell expansion entry with T cells [1] is listed as “enhanced T cell expansion”. For the same substance, the “maintenance of self-renewing / naïve T cells (CD45RO−CCR7+)” value in the assay with T cells [2] is reported as “maintained self-renewing T cells in vitro”.

Source of the values: patent US12630604B2, “Methods of making chimeric antigen receptor-expressing cells” (Novartis AG, priority 2018, dated 2026).
